The numbers were not newly measured in patent US4939177A, “Use of avarol for the control of AIDS and ARC” (Merz + Co. GmbH & Co., priority 1986, dated 1990), which cites them from elsewhere.

This data set deals with L5178y cells. The settings on record: NMRI mice bearing L5178y cells; cited from earlier work.

For `CC1=CCC[C@H]2[C@](C)(Cc3cc(O)ccc3O)[C@@H](C)CC[C@]12C` [Avarol, 2-[(1R)-1,2,3,4,4a,7,8,8aα-octahydro-1β,2β,4aβ,5-tetramethyl-1-naphthylmethyl]-1,4-benzenediol], the chemotherapeutical dose was 1 to 50 mg/kg.
